# Like-named read-outs stand apart in the source and are kept apart here.
# What was measured:
# [1] = tested on: male, Lewis rats
# [2] = tested on: male, Lewis rats; conditions: 1 hour after carageenan, measured 4 hours later
smiles,measurement,setting,value
O=C(O)c1cc(/N=N/c2ccc(S(=O)(=O)Nc3ccccn3)cc2)ccc1O [Sulfasalazine],% Inhibition MPO (u/cm),[1]; 100 mg/kg po,20%
same,% Inhibition Tissue swelling (edema),[1]; 100 mg/kg po,10%
same,% Inhibition MPO (u/cm),[1]; 300 mg/kg po,16%
same,% Inhibition Tissue swelling (edema),[1]; 300 mg/kg po,14%
C[C@@H]1C[C@H]2[C@@H]3CCC4=CC(=O)C=C[C@]4(C)[C@@]3(F)[C@@H](O)C[C@]2(C)[C@@]1(O)C(=O)CO [Dexamethasone],% Inhibition Exudate,[2]; 2.0 μg/rat intrapleural,10%
same,% Inhibition WBC,[2]; 2.0 μg/rat intrapleural,8%
same,% Inhibition Exudate,[2]; 10.0 μg/rat intrapleural,41%
same,% Inhibition Exudate,[2]; 50 μg/rat intrapleural,83%
C[C@]12C=CC(=O)C=C1CC[C@@H]1[C@@H]2[C@@H](O)C[C@@]2(C)[C@H]1CC[C@]2(O)C(=O)CO [Prednisolone],% Inhibition WBC,[2]; 50 μg/rat intrapleural,23%
same,% Inhibition Exudate,[2]; 250 μg/rat intrapleural,30%
same,% Inhibition Exudate,[2]; 1250 μg/rat intrapleural,55%
same,% Inhibition WBC,[2]; 1250 μg/rat intrapleural,97%
same,% Inhibition MPO (u/cm),[1]; 3 mg/kg po,41%
same,% Inhibition MPO (u/cm),[1]; 12 mg/kg po,46%
same,% Inhibition Tissue swelling (edema),[1]; 12 mg/kg po,40%
